Assay results: article PMC5612113, “Dimerization of the transmembrane domain of amyloid precursor protein is determined by residues around the γ-secretase cleavage sites” (The Journal of Biological Chemistry, 2017)

Target: the molecule itself
Test: FRET or BRET; three-hybrid BRET: C99-Rlu co-expressed with C99-YFP-N and C99-YFP-C; a signal needs all three hybrid proteins in close proximity

B1: C99, 99-amino acid C-terminal fragment of the amyloid precursor protein (domain or fragment)
chain: not shown
modifications: biotin on the Avi tag (pull-down bait copy, in-cell biotinylation by BirA)
notes: C99, the 99-amino acid C-terminal fragment of human amyloid precursor protein left by β-secretase cleavage; the assay tells which fusions met; also called WT C99; C99–TEV; source: PS1/PS2-deleted HTL cells (HEK293-derived), transfected; in live cells (Tango, BRET) or in lysate (pull-down); not shown: TEV protease (on one copy, Tango), C-terminal, kept; TEV site-rTA (on the other copy, Tango and …)
For B1, the “stoichiometry N” value was 2.
